The assay deals with T1, Dihydrofolate reductase (Rattus norvegicus, UniProt Q920D2).
T1 sequence (Q920D2 whole entry): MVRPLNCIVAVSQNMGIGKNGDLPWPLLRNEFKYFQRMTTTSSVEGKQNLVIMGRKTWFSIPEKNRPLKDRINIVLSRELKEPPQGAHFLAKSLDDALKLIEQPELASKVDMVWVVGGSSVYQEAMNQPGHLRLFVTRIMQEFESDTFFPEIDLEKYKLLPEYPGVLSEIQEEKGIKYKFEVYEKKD

The structures appear in SMILES notation.

Usually IC50 stands for the concentration that gives 50% inhibition. Low values mean higher potency, high ones lower potency. The compound `COc1cc(NCc2ccc3nc(N)nc(N)c3n2)cc(OC)c1OC` displayed an IC50 of 300 nM.

The record behind these values is ChEMBL document CHEMBL1128717, “2,4-Diaminopyrido[3,2-d]pyrimidine inhibitors of dihydrofolate reductase from Pneumocystis carinii and Toxoplasma gondii” (J Med Chem, 1995).
